The text below walks through data of patent US20260008783A1, “MODULATORS OF FSHR AND USES THEREOF” (Celmatix Inc., priority 2022, published 2026).

Sequences of proteins named here, by UniProt entry; tags and fusion partners are left off. Residues count along the entry.
UniProt P23945, 18-695 limits assumed: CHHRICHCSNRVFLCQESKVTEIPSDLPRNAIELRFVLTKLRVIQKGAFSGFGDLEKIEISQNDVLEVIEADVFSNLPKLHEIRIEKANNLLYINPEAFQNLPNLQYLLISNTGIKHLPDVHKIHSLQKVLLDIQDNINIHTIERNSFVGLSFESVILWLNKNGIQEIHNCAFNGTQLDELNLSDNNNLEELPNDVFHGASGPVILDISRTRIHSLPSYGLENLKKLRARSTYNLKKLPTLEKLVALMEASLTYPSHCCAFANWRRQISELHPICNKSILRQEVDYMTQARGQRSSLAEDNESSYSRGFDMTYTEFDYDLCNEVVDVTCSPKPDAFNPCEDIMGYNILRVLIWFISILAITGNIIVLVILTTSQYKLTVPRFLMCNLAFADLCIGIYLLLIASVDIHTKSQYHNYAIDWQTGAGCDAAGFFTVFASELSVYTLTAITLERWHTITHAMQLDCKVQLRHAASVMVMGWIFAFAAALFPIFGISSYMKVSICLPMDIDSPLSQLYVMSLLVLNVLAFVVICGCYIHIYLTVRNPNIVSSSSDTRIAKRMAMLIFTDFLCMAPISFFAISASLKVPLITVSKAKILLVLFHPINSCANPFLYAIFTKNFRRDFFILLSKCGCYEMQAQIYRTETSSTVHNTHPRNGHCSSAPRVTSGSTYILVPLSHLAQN

Usually IC50 stands for the midpoint of a concentration-inhibition curve.

In one assay the target is Follicle Stimulating Hormone Receptor (FSHR) (Homo sapiens, UniProt P23945). Put plainly: HTRF cAMP agonist assay, FSHR, transiently transfected CHO-K1 cells. The conditions noted are these: read-out: IC50 FSHR LANCE CAMP, CHO-K1 cells transiently expressing human FSHR. An excerpt:
Example 17. HTRF cAMP Agonist Assay Protocol (for FSHR, TSHR, LHCGR)
Mammalian expression vectors designed to express either Follicle Stimulating Hormone Receptor (FSHR), Thyroid Stimulating Hormone Receptor (TSHR), or Luteinizing Hormone/Choriogonadotropin Receptor (LHCGR), were generated with an HA-tag on the N-terminus. All constructs were expressed under a human cytomegalovirus (CMV) immediate early enhancer and promoter using the pHM6 expression vector. The protein coding region was confirmed by sequence analysis to be in-frame and of the expected sequence, matching the following accession numbers: FSHR NM_000145, TSHR NM_000369, and LHCGR NM_000233.
HTRF cAMP assays were performed using Chinese Hamster Ovary (CHO-K1) cell lines transiently expressing human FSH, TSH, and LHCG receptors. 48 hours before the assay, cells were washed with PBS and then dissociated from tissue culture flasks with 0.25% trypsin. Dissociated cells were quenched in full media (F-12K Medium Corning REF #10-025-CV, 10% Avantor Seradigm FB Essence Cat #10803-034, 1% Penicillin/Streptomycin Cytiva HyClone Cat #SV30010) and then collected by centrifugation at 290×g for 5 min. Cells were resuspended in full media and dispensed into 150 mm cell culture dishes (Nest Scientific Cat #715001), at 2.3×10^6 cells/flask. 7 hours later, cells were transfected using Lipofectamine transfection reagent (Invitrogen Cat #18324020). Briefly, 60 μL of lipofectamine was dispensed into 2 mL of Opti-MEM (Gibco Cat #31985070) and incubated for 5 minutes at room temperature. Then, the mixture was added onto […] of DNA and incubated for another 20 minutes at room temperature. Cells were washed with warm (37° C.) PBS. 17.5 mL of Opti-MEM was dispensed onto the cells, followed by addition of the Opti-MEM/lipofectamine/DNA mixture. Cells were incubated overnight in a 37° C., 5% CO2 cell incubator. 17-19 hours later, Opti-MEM was aspirated off the cells and replaced with full media. Cells were incubated for another 24 hours in a 37° C., 5% CO2 cell incubator.
On the day of the assay, cells were washed with PBS and then dissociated from tissue culture flasks with 0.25% trypsin. Dissociated cells were quenched in full media and then collected by centrifugation at 290×g for 5 min. Cells were resuspended in PBS^+/+ (Corning REF #20-030-CV) to a concentration of 2×10^5 cells/mL. 10 μL/well of cells (2,000 cells/well) were dispensed into 384-well Corning plates (REF #3825), in triplicate. Cells were incubated at room temperature for 2 hours.
Example FSHR Modulator compounds were diluted in assay buffer (PBS^+/+, 0.05% BSA Sigma-Aldrich A3059, 500 μM IBMX Sigma-Aldrich 15879) to 3.5× the final assay concentration. 4 μL of test agonist was added to the cells and incubated for 1 hour at room temperature. 10 μL of cAMP detection reagents (LANCE Ultra cAMP Detection Kit PerkinElmer TRF0264) were dispensed onto the cells and plates were incubated for 2 hours at room temperature (cAMP detection reagents were made according to the PerkinElmer kit protocol). Plates were read on an Envision plate reader following PerkinElmer guidelines.
Raw data for all assays was transmitted directly from plate readers into a database for processing. All assay plates contained both positive and negative control wells to allow for data normalization and scaling. In agonist assays, negative control wells contained assay buffer and positive control wells contained […] positive control (10 nM Follicle Stimulating Hormone Sigma-Aldrich F4021, 50 nM Thyroid Stimulating Hormone Sigma-Aldrich 869006, 50 nM Luteinizing Hormone MyBioSource MBS5308806, for their respective receptors). All control wells contained DMSO at a final assay concentration that matched the test compound wells. […]
Percent control data were analyzed by non-linear regression with a sigmoidal dose response algorithm in the database to yield potency and efficacy data.
With `COc1cc2c(cc1-c1ccn(C)n1)-c1c(c(C(=O)N3CCOCC3(C)C)nn1-c1cc(Cl)cc(Cl)c1)S(=O)(=O)C2`, the IC50 came to 376 nM.
The same measure, in the same setting: the value for `COc1cc2c(cc1Br)-c1c(c(C(=O)N(C)C(C)(C)C)nn1-c1cc(Cl)cc(Cl)c1)CO2` was 1110 nM.
On to `COc1cc2c(cc1Br)-c1c(c(C(=O)N3CCOCC3(C)C)nn1-c1cc(Cl)cc(Cl)c1)CO2`, for which the IC50 worked out at 768 nM.

Staying with this assay, now noted: read-out: IC50 FSHR LANCE CAMP, CHO-K1 cells transiently expressing human FSHR, tested form: TFA.
`COc1cc2c(cc1-c1cncc(C(N)=O)c1)-c1c(c(C(=O)N(C)C(C)(C)C)nn1-c1cc(Cl)cc(Cl)c1)S(=O)(=O)C2`: the concentration for half-maximal inhibition (IC50) came out at 2.91 nM.
Regarding `COc1cc2c(cc1-c1ccn(C)n1)-c1c(c(C(=O)N(C)C(C)(C)C)nn1-c1cc(Cl)cc(Cl)c1)[S+]([O-])C2` (stereo not drawn), the IC50 came to 578 nM.
As to `COc1cc2c(cc1-c1cncc(C#N)c1)-c1c(c(C(=O)N(C)C(C)(C)C)nn1-c1cc(Cl)cc(Cl)c1)CO2`, the IC50 is 51.9 nM.
In the case of `COc1cc2c(cc1-c1cncc(C(=N)NO)c1)-c1c(c(C(=O)N(C)C(C)(C)C)nn1-c1cc(Cl)cc(Cl)c1)CO2`, the IC50 is 9.55 nM.
With `COc1cc2c(cc1-c1ccn(C)n1)-c1c(c(C(=O)N(C)C(C)(C)C)nn1-c1cc(Cl)cc(Cl)c1)S(=O)(=O)C2`, the half-inhibitory concentration (IC50) turned out to be 319 nM.
`COc1cc2c(cc1-c1cncc(C(N)=O)c1)-c1c(c(C(=O)N3CCOCC3(C)C)nn1-c1cc(Cl)cc(Cl)c1)CO2`: the half-inhibitory concentration (IC50) came to 4.17 nM.
Still for that read-out and setting: as for `COc1cc2c(cc1-c1cncc(C(N)=O)c1)-c1c(c(C(=O)N(C)C(C)(C)C)nn1-c1cc(Cl)cc(Cl)c1)CO2`, the figure is 14.8 nM.
As for `COc1cc2c(cc1-c1cncc(C#N)c1)-c1c(c(C(=O)N(C)C(C)(C)C)nn1-c1cc(Cl)cc(Cl)c1)S(=O)(=O)C2`, the concentration for half-maximal inhibition (IC50) is 76.3 nM.
Take `COc1cc2c(cc1-c1cncc(C(N)=O)c1)-c1c(c(C(=O)N3CCOCC3(C)C)nn1-c1cc(Cl)cc(Cl)c1)S(=O)(=O)C2`: the half-inhibitory concentration (IC50) came to 11.9 nM.
Take `COc1cc2oc3c(C(=O)N(C)C(C)(C)C)nn(-c4ccsc4)c3c2cc1-c1ccn(C)n1`: the IC50 was 3010 nM.
In the case of `COc1cc2c(cc1-c1cncc(C#N)c1)-c1c(c(C(=O)N3CCOCC3(C)C)nn1-c1cc(Cl)cc(Cl)c1)CO2`, the IC50 is 18.2 nM.
For `COc1cc2oc3c(C(=O)N(C)C(C)(C)C)n(-c4ccsc4)nc3c2cc1-c1ccn(C)n1`, the IC50 is 4890 nM.
